The species named for this assay is Homo sapiens. Briefly: Selectivity ratio of IC50 for gamma secretase (unknown origin) mediated Notch M1726V mutant activation in CHO K1 cells to gamma secretase (unknown origin) mediated APP cleavage in CHO cells expressing APP Swedish KM/NL mutant. It counts as cell-based.

This passage reports Ratio IC50 results from ChEMBL document CHEMBL4428029, “Notch Antagonists: Potential Modulators of Cancer and Inflammatory Diseases” (J Med Chem, 2016).

As to `O=S(=O)(N[C@H](CO)C(C(F)(F)F)C(F)(F)F)c1ccc(Cl)s1` [BEGACESTAT], the Ratio IC50 worked out at 16.
